Assay results: ChEMBL document CHEMBL1143388 (Bioorg Med Chem, 2009)

By UniProt entry, the sequences of proteins in these tests, tags left out. Where a name states a change or a piece, a line headed by the entry shows the natural chain unless it says otherwise.
UniProt P41145: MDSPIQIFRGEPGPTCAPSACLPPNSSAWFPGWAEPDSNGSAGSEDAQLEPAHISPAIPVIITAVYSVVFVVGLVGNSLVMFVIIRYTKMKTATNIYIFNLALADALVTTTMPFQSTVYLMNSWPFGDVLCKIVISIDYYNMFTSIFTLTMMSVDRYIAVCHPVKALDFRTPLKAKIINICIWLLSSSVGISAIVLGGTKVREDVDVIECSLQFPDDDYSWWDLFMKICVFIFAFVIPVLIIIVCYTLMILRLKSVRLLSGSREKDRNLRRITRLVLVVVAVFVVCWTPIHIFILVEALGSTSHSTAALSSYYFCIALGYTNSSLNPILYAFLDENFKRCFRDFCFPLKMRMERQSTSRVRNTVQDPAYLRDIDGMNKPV

Target: Kappa-type opioid receptor (Homo sapiens, UniProt P41145)
Test: Agonist activity at human KOPR expressed in CHO cells assessed as enhancement of [35S]GTPgammaS binding at 10 uM relative to U50488
Format: functional, cell-based

CN(C(=O)Cc1ccc(Cl)c(Cl)c1)C1CCCCC1N1CCCC1 (stereo unspecified)
Emax: 100%
